In publication PMC4106271 (Journal of Medicinal Chemistry, 2014):
Several values for one entry are separate records, joined by “and”; a condition that tells them apart may be missing. Equal values may be shown once.

Protein sequences, listed by entry. Tags and fused reporters are not part of them. Residues count along the entry.
UniProt P14867, 28-456: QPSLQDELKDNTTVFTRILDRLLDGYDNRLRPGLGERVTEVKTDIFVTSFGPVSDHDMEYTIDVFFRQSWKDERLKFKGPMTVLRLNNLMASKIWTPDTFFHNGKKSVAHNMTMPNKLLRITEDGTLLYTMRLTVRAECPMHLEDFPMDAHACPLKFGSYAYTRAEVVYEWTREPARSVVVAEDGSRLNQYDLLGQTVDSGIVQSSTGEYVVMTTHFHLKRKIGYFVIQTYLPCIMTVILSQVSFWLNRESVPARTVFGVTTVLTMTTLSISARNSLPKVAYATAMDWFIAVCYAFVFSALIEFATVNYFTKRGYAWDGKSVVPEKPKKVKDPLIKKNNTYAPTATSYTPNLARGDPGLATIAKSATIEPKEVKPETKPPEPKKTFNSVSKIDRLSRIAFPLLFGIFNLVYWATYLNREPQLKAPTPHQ
UniProt P47870, 26-512: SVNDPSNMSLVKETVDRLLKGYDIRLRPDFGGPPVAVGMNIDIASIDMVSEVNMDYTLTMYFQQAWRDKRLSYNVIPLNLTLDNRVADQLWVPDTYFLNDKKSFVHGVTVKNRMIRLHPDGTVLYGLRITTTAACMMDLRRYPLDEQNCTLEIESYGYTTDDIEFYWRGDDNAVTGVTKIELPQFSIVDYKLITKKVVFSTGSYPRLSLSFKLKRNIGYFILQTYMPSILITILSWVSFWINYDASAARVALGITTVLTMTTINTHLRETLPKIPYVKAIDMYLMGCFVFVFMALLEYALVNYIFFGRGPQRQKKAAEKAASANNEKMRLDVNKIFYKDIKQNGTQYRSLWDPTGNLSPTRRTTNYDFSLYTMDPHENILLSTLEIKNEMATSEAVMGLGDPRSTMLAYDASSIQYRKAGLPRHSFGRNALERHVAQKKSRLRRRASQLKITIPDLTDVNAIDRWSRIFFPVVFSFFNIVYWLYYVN
UniProt P31644, 32-462: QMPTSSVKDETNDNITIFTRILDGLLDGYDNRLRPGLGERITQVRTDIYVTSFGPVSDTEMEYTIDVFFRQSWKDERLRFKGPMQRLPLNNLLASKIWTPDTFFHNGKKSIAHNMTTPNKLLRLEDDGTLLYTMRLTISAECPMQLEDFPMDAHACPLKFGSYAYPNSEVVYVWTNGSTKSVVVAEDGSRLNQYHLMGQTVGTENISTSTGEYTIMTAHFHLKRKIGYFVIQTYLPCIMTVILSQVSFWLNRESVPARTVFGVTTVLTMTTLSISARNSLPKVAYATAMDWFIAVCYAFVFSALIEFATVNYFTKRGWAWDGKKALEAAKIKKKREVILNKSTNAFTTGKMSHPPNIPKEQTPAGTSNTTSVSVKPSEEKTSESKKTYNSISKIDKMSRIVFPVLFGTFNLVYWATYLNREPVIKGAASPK
UniProt P34903, 29-492: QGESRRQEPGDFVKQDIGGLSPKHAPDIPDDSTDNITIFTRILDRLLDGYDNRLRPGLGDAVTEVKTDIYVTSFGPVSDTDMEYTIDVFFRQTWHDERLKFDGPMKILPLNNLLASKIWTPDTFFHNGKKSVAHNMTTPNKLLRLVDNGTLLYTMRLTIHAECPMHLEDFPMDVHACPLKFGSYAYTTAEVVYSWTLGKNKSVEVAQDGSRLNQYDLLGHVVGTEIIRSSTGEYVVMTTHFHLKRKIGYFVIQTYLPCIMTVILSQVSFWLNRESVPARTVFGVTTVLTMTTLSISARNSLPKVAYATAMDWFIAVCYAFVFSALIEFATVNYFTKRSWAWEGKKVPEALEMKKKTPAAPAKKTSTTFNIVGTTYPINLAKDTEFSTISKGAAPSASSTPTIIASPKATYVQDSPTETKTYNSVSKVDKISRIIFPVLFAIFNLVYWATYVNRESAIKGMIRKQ
UniProt P28472, 26-473: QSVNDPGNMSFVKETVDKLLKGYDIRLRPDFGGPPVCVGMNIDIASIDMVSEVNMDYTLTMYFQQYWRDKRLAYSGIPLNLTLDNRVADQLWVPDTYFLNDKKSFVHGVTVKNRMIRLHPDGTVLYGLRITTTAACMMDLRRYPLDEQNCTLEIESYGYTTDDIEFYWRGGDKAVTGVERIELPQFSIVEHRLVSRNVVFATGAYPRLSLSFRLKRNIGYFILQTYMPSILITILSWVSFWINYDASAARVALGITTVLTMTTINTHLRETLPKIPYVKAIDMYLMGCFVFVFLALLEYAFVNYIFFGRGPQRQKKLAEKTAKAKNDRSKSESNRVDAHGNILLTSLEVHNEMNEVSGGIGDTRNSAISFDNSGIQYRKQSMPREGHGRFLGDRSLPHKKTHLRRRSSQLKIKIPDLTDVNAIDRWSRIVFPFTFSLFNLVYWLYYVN
UniProt P18505, 26-474: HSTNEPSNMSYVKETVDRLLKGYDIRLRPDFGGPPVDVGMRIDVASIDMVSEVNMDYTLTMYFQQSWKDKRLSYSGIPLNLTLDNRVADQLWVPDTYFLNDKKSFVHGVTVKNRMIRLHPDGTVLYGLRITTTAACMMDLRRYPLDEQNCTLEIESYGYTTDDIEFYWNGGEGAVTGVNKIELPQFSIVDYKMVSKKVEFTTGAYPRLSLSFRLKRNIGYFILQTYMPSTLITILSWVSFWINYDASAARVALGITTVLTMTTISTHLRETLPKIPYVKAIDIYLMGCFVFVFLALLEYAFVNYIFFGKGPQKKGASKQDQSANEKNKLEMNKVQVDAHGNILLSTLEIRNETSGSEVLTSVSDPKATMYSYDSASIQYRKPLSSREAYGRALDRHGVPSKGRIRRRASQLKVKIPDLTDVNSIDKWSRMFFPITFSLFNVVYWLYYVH
UniProt P47869, 29-451: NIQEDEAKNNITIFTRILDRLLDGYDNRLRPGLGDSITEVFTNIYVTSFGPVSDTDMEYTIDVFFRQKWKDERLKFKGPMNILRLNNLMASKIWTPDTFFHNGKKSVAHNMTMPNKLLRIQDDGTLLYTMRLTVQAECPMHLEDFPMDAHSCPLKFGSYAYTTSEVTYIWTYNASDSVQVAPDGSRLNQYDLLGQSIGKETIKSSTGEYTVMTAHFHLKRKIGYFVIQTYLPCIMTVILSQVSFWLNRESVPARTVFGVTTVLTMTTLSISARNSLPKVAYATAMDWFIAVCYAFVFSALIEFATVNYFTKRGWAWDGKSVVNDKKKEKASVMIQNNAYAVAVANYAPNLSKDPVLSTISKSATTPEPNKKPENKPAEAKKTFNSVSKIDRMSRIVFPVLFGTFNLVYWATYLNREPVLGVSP
UniProt P48169, 36-554: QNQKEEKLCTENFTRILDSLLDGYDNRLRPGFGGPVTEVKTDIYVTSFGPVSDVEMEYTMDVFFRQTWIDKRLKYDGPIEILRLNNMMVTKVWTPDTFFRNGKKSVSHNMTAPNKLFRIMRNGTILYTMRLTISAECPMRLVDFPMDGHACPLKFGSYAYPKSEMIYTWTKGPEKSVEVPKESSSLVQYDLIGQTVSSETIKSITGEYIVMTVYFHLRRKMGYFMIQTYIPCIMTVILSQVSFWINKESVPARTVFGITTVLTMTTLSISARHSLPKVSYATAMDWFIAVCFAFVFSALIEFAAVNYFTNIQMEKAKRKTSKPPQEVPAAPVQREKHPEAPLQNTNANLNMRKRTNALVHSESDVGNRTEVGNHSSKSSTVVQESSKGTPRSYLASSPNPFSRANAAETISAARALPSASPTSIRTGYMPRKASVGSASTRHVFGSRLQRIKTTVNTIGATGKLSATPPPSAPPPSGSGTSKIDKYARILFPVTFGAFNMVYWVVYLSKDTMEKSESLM

What was measured:
[1] = target: T1, α1β2γ2S GABAA receptors (Homo sapiens, UniProt P14867+P47870); experiment: Two-microelectrode voltage clamp, IGABA modulation, α1β2γ2S; type: cell-based; conditions: for activation at 100 µM / modulation of IGABA (%): 100 μM compound, GABA EC3–7, Xenopus laevis oocytes; for activation at 100 µM / IGABA-max (%) / Emax / modulation of IGABA (%): mean ± SEM; for IGABA-max (%) / Emax: maximal IGABA enhancement, GABA EC3–7, Xenopus oocytes; for Emax: read-out: IGABA-max (%)
T1 construct: expressed in transfected cells; host or cells: Xenopus laevis oocytes injected with cRNA (pCMV cDNA templates)
Protocol: (§1) Preparation of stage V–VI oocytes from X. laevis and synthesis of capped runoff poly(A) cRNA transcripts from linearized cDNA templates (pCMV vector) was performed as previously described.[49] Female X. laevis frogs (Nasco) were anesthetized by 15 min incubation in a 0.2% MS-222 (methanesulfonate salt of 3-aminobenzoic acid ethyl ester; Sigma–Aldrich, Vienna, Austria) solution before removal of parts of the ovaries. Follicle membranes from isolated oocytes were enzymatically digested with 2 mg/mL collagenase (type 1A, Sigma–Aldrich, Vienna, Austria).
(§2) Selected oocytes were injected with 10–50 nL of DEPC-treated water (diethyl pyrocarbonate, Sigma, Vienna, Austria) containing the different GABAA cRNAs at a concentration of approximately 300–3000 pg·nL^–1·subunit^–1.
(§3) To ensure expression of the γ2S subunit in the case of α1/2/3/5β2/3γ2S receptors, cRNAs were mixed in a ratio of 1:1:10. For expression of receptors composed of α4β2γ2S and α1β1γ2S, cRNAS were mixed in a ratio of 3:1:10. The amount of cRNAs was determined by means of a NanoDrop ND-1000 (Kisker-Biotech, Steinfurt, Germany).
(§4) Oocytes were stored at +18 °C in modified ND96 solution (90 mM NaCl, 1 mM CaCl2, 1 mM KCl, 1 mM MgCl2·6H2O, and 5 mM HEPES [4-(2-hydroxyethyl)-1-piperazineethanesulfonic acid], pH 7.4, all from Sigma–Aldrich, Vienna, Austria).
(§5) Chloride currents through GABAA receptors (IGABA) were measured at room temperature (+21 ± 1 °C) by means of a two-microelectrode voltage clamp technique making use of a Turbo TEC-05X amplifier (npi electronic, Tamm, Germany). IGABA were elicited at a holding potential of –70 mV. Data acquisition was carried out by means of an Axon Digidata 1322A interface using pCLAMP v.10 (Molecular Devices, Sunnyvale, CA). The modified ND96 solution was used as bath solution. Microelectrodes were filled with 2 M KCl and had resistances between 1 and 3 MΩ.
GABA and the studied derivatives were applied by means of the ScreeningTool (npi electronic, Tamm, Germany) fast perfusion system as described previously.[50] To elicit IGABA, the chamber was perfused with 120 μL of GABA- or compound-containing solution at a volume rate of 300 μL/s.[34] Care was taken to account for possible slow recovery from increasing levels of desensitization in the presence of high drug concentrations. The duration of washout periods was therefore extended from 1.5 min (<10 μM compounds) to 30 min (≥10 μM compounds). Oocytes with maximal current amplitudes >3 μA were discarded to exclude voltage clamp errors.
Stimulation of chloride currents by modulators of the GABAA receptor was measured at a GABA concentration eliciting between 3% and 7% of the maximal current amplitude (EC3–7). The GABA EC3–7 was determined for each oocyte individually. Enhancement of the chloride current was defined as (IGABA+compd/IGABA) – 1, where IGABA+compd is the current response in the presence of a given compound and IGABA is the control GABA current. IGABA-max reflects the maximal IGABA enhancement. Concentration–response curves were generated and the data were fitted by nonlinear regression analysis using Origin Software (OriginLab Corp.). Data were fitted to the equation 1/(1 + (EC50/[compound])^nH), where nH is the Hill coefficient. Each data point represents the mean ± SEM from at least three oocytes and ≥2 oocyte batches. Statistical significance was calculated by paired Student t-test with a confidence interval of <0.05.

[2] = target: T2, α5β2γ2S GABAA receptors (Homo sapiens, UniProt P31644+P47870); experiment: Two-microelectrode voltage clamp, IGABA modulation, α5β2γ2S; type: cell-based; conditions: Xenopus oocytes
T2 construct: expressed in transfected cells; host or cells: Xenopus laevis oocytes injected with cRNA (pCMV cDNA templates)
Protocol: as §1, with “Austria). […]” for “Austria).”
(§6) To ensure expression of the γ2S subunit in the case of α1/2/3/5β2/3γ2S receptors, cRNAs were mixed in a ratio of 1:1:10. […] The amount of cRNAs was determined by means of a NanoDrop ND-1000 (Kisker-Biotech, Steinfurt, Germany). […]
(§7) Chloride currents through GABAA receptors (IGABA) were measured at room temperature (+21 ± 1 °C) by means of a two-microelectrode voltage clamp technique making use of a Turbo TEC-05X amplifier (npi electronic, Tamm, Germany). […]
(§8) Stimulation of chloride currents by modulators of the GABAA receptor was measured at a GABA concentration eliciting between 3% and 7% of the maximal current amplitude (EC3–7). The GABA EC3–7 was determined for each oocyte individually. […] Statistical significance was calculated by paired Student t-test with a confidence interval of <0.05.

[3] = target: T3, α3β2γ2S GABAA receptors (Homo sapiens, UniProt P34903+P47870); experiment: Two-microelectrode voltage clamp, IGABA modulation, α3β2γ2S; type: cell-based; conditions: Xenopus oocytes
T3 construct: expressed in transfected cells; host or cells: Xenopus laevis oocytes injected with cRNA (pCMV cDNA templates)
Protocol: as §1, with “Austria). […]” for “Austria).”
as §6, §7, §8

[4] = target: T4, α1β3γ2S GABAA receptors (Homo sapiens, UniProt P14867+P28472); experiment: Two-microelectrode voltage clamp, IGABA modulation, α1β3γ2S; type: cell-based; conditions: for IGABA,max (%): α1β3γ2S, Xenopus oocytes
T4 construct: expressed in transfected cells; host or cells: Xenopus laevis oocytes injected with cRNA (pCMV cDNA templates)
Protocol: as §1, §2, §3, §4
as §5, with “The modified ND96 solution was used as bath solution. Microelectrodes were filled with 2 M KCl and had resistances between 1 and 3 MΩ.” left out
as §8

[5] = target: T5, α1β1γ2S GABAA receptors (Homo sapiens, UniProt P14867+P18505); experiment: Two-microelectrode voltage clamp, IGABA modulation, α1β1γ2S; type: cell-based; conditions: Xenopus oocytes
T5 construct: expressed in transfected cells; host or cells: Xenopus laevis oocytes injected with cRNA (pCMV cDNA templates)
Protocol: as §1, with “Austria). […]” for “Austria).”
as §6, §7, §8

[6] = target: T6, α2β2γ2S GABAA receptors (Homo sapiens, UniProt P47869+P47870); experiment: Two-microelectrode voltage clamp, IGABA modulation, α2β2γ2S; type: cell-based; conditions: Xenopus oocytes
T6 construct: expressed in transfected cells; host or cells: Xenopus laevis oocytes injected with cRNA (pCMV cDNA templates)
Protocol: as §1, with “Austria). […]” for “Austria).”
as §6, §7, §8

[7] = target: T7, α4β2γ2S GABAA receptors (Homo sapiens, UniProt P47870+P48169); experiment: Two-microelectrode voltage clamp, IGABA modulation, α4β2γ2S; type: cell-based; conditions: Xenopus oocytes
T7 construct: expressed in transfected cells; host or cells: Xenopus laevis oocytes injected with cRNA (pCMV cDNA templates)
Protocol: as §1, with “Austria). […]” for “Austria).”
as §6, §7, §8

[8] = Estimation of plasma levels after ip application (UHPLC-MS/MS); type: in vivo, mice; conditions: mouse plasma
Protocol: Trunk blood from male C57BL/6N (6 months) was taken 15, 30, and 60 min after ip application of 23 and 25 (doses 1, 3, and 10 mg/kg body weight; injection solutions were prepared as described for behavioral analysis). At each time point, mice were euthanized and blood samples (500–800 μL) were collected and compiled into ethylenediaminetetraacetic acid (EDTA)-coated microtubes (1.6 mg of EDTA/sample) and centrifuged at 12 000 rpm for 5 min at 4 °C. Plasma samples were transferred into 1.5 mL tubes and stored at −80 °C until analysis.
Two separate sets of 23 and 25 stock solutions were prepared in DMSO for making calibrators and quality control (QC) samples. Plasma calibrators were prepared by spiking corresponding stock solutions into a blank plasma sample. The following 23 and 25 concentrations were added: 20, 50, 100, 250, 500, 1000, and 2000 ng/mL. The same blank plasma and both stock solutions (for QC) were used to generate three level plasma QC samples at 60, 1000, and 1600 ng/mL for both 23 and 25.
Plasma proteins were precipitated by the addition of 50 μL of WS at 200 ng/mL of the corresponding IS: 22 (for 23) or 24 (for 25) and 500 μL of ice-cold acetonitrile to 20 μL of K3EDTA mouse plasma. Samples were vortexed at 1400 rpm for 10 min and then centrifuged at 13200g for 20 min at 10 °C. […]
Quantification was performed on a 1290 Infinity LC system coupled with a 6460 triple quadrupole mass spectrometer with Jet Stream Technology, and data was processed with a MassHunter Workstation Software version B.06.00 (Agilent; Waldbronn, Germany). […]
MS parameters were manually optimized as follow: drying N2 gas of 320 °C at a flow rate of 10 L/min, nebulizer pressure of 20 psi, sheath N2 gas of 400 °C at a flow rate of 11 L/min, nozzle voltage of 0 V, capillary voltage of 2.5 kV, and delta EMV 0 V. Quantification was determined in multiple reaction monitoring (MRM) mode with an ESI-MS/MS system in positive ionization mode. […]

Row | SMILES | activation at 100 µM [1] | Emax [1] | further results
1 | CCN(CC)C(=O)/C=C/C=C/c1ccc2c(c1)OCO2 [Compound 21] | 258 ± 28% |  | 
2 | CC(C)N(C(=O)/C=C/C=C/c1ccc2c(c1)OCO2)C(C)C [Compound 22] | 986 ± 244% |  | 
3 | CCCN(CCC)C(=O)/C=C/C=C/c1ccc2c(c1)OCO2 [Compound 23, (2E,4E)-5-(1,3-benzodioxol-5-yl)-N,N-dipropyl-2,4-pentadienamide] |  |  | IGABA,max (%) [2]: 1624% ± 156% and 1624 ± 156%; IGABA,max (%) [3]: 1284.6% ± 142% and 1285 ± 142%; IGABA,max (%) [4]: 1240 ± 128%; IGABA,max (%) [5]: 1157% ± 69% and 1157 ± 69 %; IGABA,max (%) [6]: 980% ± 129% and 980 ± 129 %; IGABA,max (%) [7]: 1316% ± 55% and 1316 ± 55 %
4 | CCCCN(CCCC)C(=O)/C=C/C=C/c1ccc2c(c1)OCO2 [Compound 25, (2E,4E)-5-(1,3-Benzodioxol-5-yl)-N,N-dibutyl-2,4-pentadienamide] | 506 ± 74% | 760% | IGABA,max (%) [2]: 387 ± 20 %; IGABA,max (%) [3]: 617 ± 42 %; stronger IGABA enhancement compared to α1β1γ2S receptors ([4]; α1β3γ2S vs α1β1γ2S): 3.9 fold; IGABA,max (%) [4]: 587 ± 8 %; IGABA,max (%) [5]: 152 ± 30 %; IGABA,max (%) [6]: 512 ± 26 %; IGABA-max (%) [1]: 760 ± 47 %; stronger IGABA enhancement compared to α1β1γ2S receptors ([1]; α1β2γ2S vs α1β1γ2S): 5 fold; IGABA,max (%) [7]: 419 ± 73 %; mean plasma concn ([8]; 1 mg/kg body weight ip): 41.5 ± 8.7 ng/mL; mean plasma concn ([8]; 3 mg/kg body weight ip): 172.0 ± 19.0 ng/mL; mean plasma concn ([8]; 10 mg/kg body weight ip): 419.0 ± 37.2 ng/mL
5 | O=C(/C=C/C=C/c1ccc2c(c1)OCO2)N1CCCCCC1 [Compound 28] | 294% |  | modulation of IGABA (%) [1]: 294 ± 66 %
6 | O=C(/C=C/C=C/c1ccc2c(c1)OCO2)N1CCSCC1 [Compound 30] | 113 ± 17% |  | 
7 | CC1CCCCN1C(=O)/C=C/C=C/c1ccc2c(c1)OCO2 (stereo not shown) [Compound 33] | 359 ± 50% |  | 
8 | CC1CCCN(C(=O)/C=C/C=C/c2ccc3c(c2)OCO3)C1 (stereo not shown) [Compound 34] | 439 ± 31% |  | 
9 | CC1CCN(C(=O)/C=C/C=C/c2ccc3c(c2)OCO3)CC1 [Compound 35] | 568 ± 54% | 733% | IGABA-max (%) [1]: 733 ± 60 %
10 | C[C@@H]1CCC[C@H](C)N1C(=O)/C=C/C=C/c1ccc2c(c1)OCO2 [Compound 38] | 218 ± 43% |  | 
11 | O=C(/C=C/C=C/c1ccc2c(c1)OCO2)N1CCCC(C(F)(F)F)C1 (stereo not shown) [Compound 39] | 183 ± 20% |  | 
12 | O=C(/C=C/C=C/c1ccc2c(c1)OCO2)N(CC(F)(F)F)CC(F)(F)F [Compound 43] | 445 ± 74% | 505 ± 24% | 
13 | CCCN(CCC)C(=O)c1ccc(-c2ccc3c(c2)OCO3)cc1 [Compound 47] | 364 ± 55% | 603% | IGABA-max (%) [1]: 603 ± 87 %
14 | O=C(c1cccc(-c2ccc3c(c2)OCO3)c1)N1CCCCC1 [Compound 50] | 178% |  | modulation of IGABA (%) [1]: 178 ± 32 %
15 | CC(C)N(C(=O)c1cccc(-c2ccc3c(c2)OCO3)c1)C(C)C [Compound 53] | 298 ± 31% | 388 ± 64% | 
16 | CCCCN(CCCC)C(=O)c1ccccc1-c1ccc2c(c1)OCO2 [Compound 56] | 114 ± 11% | 165 ± 4% | 
17 | CCCN(CCC)C(=O)c1ccc(-c2ccc3c(c2)OCO3)s1 [Compound 59] | 134 ± 39% |  | 
18 | O=C(/C=C/c1cccc2cc3c(cc12)OCO3)N1CCCCC1 [Compound 65] | 105 ± 18% |  | 
19 | CCCN(CCC)C(=O)c1cccc2cc3c(cc12)OCO3 [Compound 72] |  | 706% | IGABA-max (%) [1]: 706 ± 58 %
20 | CCCCN(CCCC)C(=O)c1cccc2cc3c(cc12)OCO3 [Compound 73] | 514 ± 76% | 480% | IGABA-max (%) [1]: 480 ± 85%
21 | CCCN(CCC)C(=O)c1ccc2cc3c(cc2c1)OCO3 [Compound 76] | 122 ± 26% |  | 
22 | CCCCN(CCCC)C(=O)c1ccc2cc3c(cc2c1)OCO3 [Compound 77] | 138 ± 29% |  | 
